Where two headings read alike, the source gives them in different places.
Tests used:
[1] = biological target: CRAF (Homo sapiens, UniProt P04049); assay: CRAF kinase activity assay (ADP-Glo)
[2] = system: pERK in HCT-116 cells (KRAS G13D); assay: Phospho-ERK inhibition (AlphaLISA SureFire Ultra p-ERK 1/2), HCT116; conditions: HCT116 cells; for HCT116 pERK Ymin %: Ymin in brackets; for IC50: read-out: HCT116 pERK IC50; for HCT116 pERK % Ymin (lowest value of the IC50 curve): Ymin above −20% = minimal or no paradoxical activation
Method in brief: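 Cells plated in RPMI-1640 with 5% FBS, kept overnight at 37° C, then treated 1 h with ten-point dilutions (top usually 10 μM; 0.5% DMSO). Lysate p-ERK1/2 (Thr202/Tyr204) read by AlphaLISA SureFire Ultra. % inhibition set against DMSO after subtracting the trametinib background; IC50 from four-parameter fit.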

The chains behind the UniProt entries cited, without tags or fusion partners.
UniProt P04049, whole entry: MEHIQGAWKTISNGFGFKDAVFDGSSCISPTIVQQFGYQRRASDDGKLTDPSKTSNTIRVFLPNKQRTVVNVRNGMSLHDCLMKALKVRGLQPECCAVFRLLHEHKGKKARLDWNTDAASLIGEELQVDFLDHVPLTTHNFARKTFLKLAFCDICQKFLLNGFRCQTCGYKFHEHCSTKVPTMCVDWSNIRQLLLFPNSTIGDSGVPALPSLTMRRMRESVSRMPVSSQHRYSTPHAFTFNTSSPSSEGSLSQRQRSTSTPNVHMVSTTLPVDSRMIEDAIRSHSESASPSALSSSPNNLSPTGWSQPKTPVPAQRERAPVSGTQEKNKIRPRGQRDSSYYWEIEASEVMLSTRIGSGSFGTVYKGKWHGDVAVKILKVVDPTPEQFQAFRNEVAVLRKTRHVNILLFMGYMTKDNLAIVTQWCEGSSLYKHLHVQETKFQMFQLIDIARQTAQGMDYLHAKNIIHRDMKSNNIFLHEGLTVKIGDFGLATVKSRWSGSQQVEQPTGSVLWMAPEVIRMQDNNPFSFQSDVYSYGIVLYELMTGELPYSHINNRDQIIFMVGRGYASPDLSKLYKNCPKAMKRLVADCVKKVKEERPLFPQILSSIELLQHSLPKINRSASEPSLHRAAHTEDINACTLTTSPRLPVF
UniProt P15056, whole entry: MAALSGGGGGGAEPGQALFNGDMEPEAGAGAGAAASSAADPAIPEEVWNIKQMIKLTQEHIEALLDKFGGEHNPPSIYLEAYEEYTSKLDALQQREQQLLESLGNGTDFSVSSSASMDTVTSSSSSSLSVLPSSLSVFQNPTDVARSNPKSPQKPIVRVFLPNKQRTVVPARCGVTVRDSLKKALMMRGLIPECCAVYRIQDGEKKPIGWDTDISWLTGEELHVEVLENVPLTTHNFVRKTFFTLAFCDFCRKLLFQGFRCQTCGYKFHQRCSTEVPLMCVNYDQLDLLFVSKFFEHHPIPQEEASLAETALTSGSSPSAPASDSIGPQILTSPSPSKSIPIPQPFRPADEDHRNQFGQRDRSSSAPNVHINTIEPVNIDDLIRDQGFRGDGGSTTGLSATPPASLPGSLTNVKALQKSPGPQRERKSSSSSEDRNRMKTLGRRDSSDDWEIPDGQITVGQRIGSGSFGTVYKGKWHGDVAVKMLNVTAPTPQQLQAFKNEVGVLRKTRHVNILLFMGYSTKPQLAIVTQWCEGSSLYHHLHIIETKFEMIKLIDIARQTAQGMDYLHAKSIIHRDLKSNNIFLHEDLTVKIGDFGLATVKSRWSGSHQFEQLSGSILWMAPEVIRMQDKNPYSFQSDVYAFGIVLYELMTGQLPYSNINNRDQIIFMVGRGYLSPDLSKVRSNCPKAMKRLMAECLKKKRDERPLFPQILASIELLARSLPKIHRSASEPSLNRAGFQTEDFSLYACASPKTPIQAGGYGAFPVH

[3] = biological target: BRAF (Homo sapiens (Human), UniProt P15056); assay: BRAF kinase activity assay (ADP-Glo)
[4] = read-out: Kinase IC50 (nM) CRAF
[5] = class symbol before the bracket
[6] = read-out: Kinase IC50 (nM) BRAF
[7] = read-out: Kinase IC50 (nM), CRAF biochemical kinase assay, CRAF
[8] = read-out: Kinase IC50 (nM), BRAF biochemical kinase assay, BRAF
[9] = read-out: Kinase IC50 (nM) CRAF, tested form: formate
[10] = class symbol before the bracket, tested form: formate
[11] = read-out: Kinase IC50 (nM) BRAF, tested form: formate
[12] = read-out: Kinase IC50 (nM) CRAF, tested form: formic acid salt
[13] = class symbol before the bracket, tested form: formic acid salt
[14] = read-out: Kinase IC50 (nM) BRAF, tested form: formic acid salt

SMILES | IC50 [1, 4] [nM] | HCT116 pERK Ymin % [2] [%] | IC50 [2, 5] [nM] | IC50 [3, 6] [nM] | IC50 [1, 7] [nM] | HCT116 pERK % Ymin (lowest value of the IC50 curve) [2] [%] | IC50 [2] [nM] | IC50 [3, 8] [nM] | other results
COc1ccc(S(=O)(=O)Nc2ccc(F)c(Nc3ncnc4ccc(-n5c(C)nc6ccccc65)nc34)c2F)cc1 | > 50 | 6 | 1000 to 10000 | > 10 | – | – | – | – | –
COC1CCN(c2cccc3c2ncn3-c2ccc3ncnc(Nc4c(F)ccc(NS(=O)(=O)c5cccc(Cl)c5C)c4F)c3n2)CC1 | – | – | – | – | 10 to 50 | −6 | < 500 | 1 to 10 | –
O=S(=O)(Nc1ccc(F)c(Nc2ncnc3ccc(-n4nnc5c(N6CCN(C7COC7)CC6)cccc54)nc23)c1F)c1cccc(Cl)c1Cl | – | – | – | – | < 10 | −6 | < 500 | < 1 | –
O=S(=O)(Nc1ccc(F)c(Nc2ncnc3ccc(-n4cnc5c(N6CCO[C@H](CO)C6)cccc54)nc23)c1F)c1cccc(Cl)c1Cl | – | – | – | – | < 10 | 1 | < 500 | < 1 | –
O=S(=O)(Nc1ccc(F)c(Nc2ncnc3ccc(-n4cnc5c(N6CC(CF)C6)cccc54)nc23)c1F)c1cccc(Cl)c1Cl | – | – | – | – | 10 to 50 | −9 | < 500 | > 10 | –
O=S(=O)(Nc1ccc(F)c(Nc2ncnc3ccc(-n4cnc5c(CN6CCOC[C@@H]6CO)cccc54)nc23)c1F)c1ccccc1Cl | 10 to 50 | −7 | 1000 to 10000 | 1 to 10 | – | – | – | – | –
Cc1c(S(=O)(=O)Nc2ccc(F)c(Nc3ncnc4ccc(-n5nnc6ccccc65)nc34)c2F)ccc(F)c1F | – | – | – | – | 10 to 50 | -14 | 500 to 1000 | 1 to 10 | –
Cc1c(F)cccc1S(=O)(=O)Nc1ccc(F)c(Nc2ncnc3ccc(-n4nc(C(=O)N5CCC6(CC5)CC(N)CO6)c5ccccc54)nc23)c1F (centres unmarked) | – | – | – | – | – | – | – | – | IC50 [1, 9]: 10 to 50 nM; HCT116 pERK Ymin % ([2]; tested form: formate): −3.4%; IC50 [2, 10]: < 500 nM; IC50 [3, 11]: < 1 nM
O=S(=O)(Nc1ccc(F)c(Nc2ncnc3ccc(-n4cnc5c(N6CC(F)C6)cccc54)nc23)c1F)c1cccc(Cl)c1Cl | – | – | – | – | 10 to 50 | −6 | < 500 | 1 to 10 | –
Cc1c(Cl)cccc1S(=O)(=O)Nc1ccc(F)c(Nc2ncnc3ccc(-n4cc(C(N)=O)nc4C)nc23)c1F | < 10 | 2.0 | 1000 to 10000 | < 1 | – | – | – | – | –
Cc1c(F)cccc1S(=O)(=O)Nc1ccc(F)c(Nc2ncnc3ccc(-n4cnc5c(N6CCC[C@H](O)C6)cccc54)nc23)c1F | – | – | – | – | 10 to 50 | 8 | < 500 | 1 to 10 | –
Cc1c(F)cccc1S(=O)(=O)Nc1ccc(F)c(Nc2ncnc3ccc(-n4nc(C(=O)N[C@H]5C[C@H](O)C5)c5ccccc54)nc23)c1F | 10 to 50 | 6.6 | < 500 | 1 to 10 | – | – | – | – | –
COCCCNC(=O)c1nn(-c2ccc3ncnc(Nc4c(F)ccc(NS(=O)(=O)c5cccc(F)c5C)c4F)c3n2)c2ccccc12 | 10 to 50 | −0.8 | < 500 | 1 to 10 | – | – | – | – | –
O=S(=O)(Nc1ccc(F)c(Nc2ncnc3ccc(-n4cnc5c(N6C7CCC6CC(O)C7)cccc54)nc23)c1F)c1cccc(Cl)c1Cl (centres unmarked) | – | – | – | – | > 50 | −10 | 500 to 1000 | 1 to 10 | –
COC1(C)CCN(c2cccc3c2ncn3-c2ccc3ncnc(Nc4c(F)ccc(NS(=O)(=O)c5cccc(Cl)c5Cl)c4F)c3n2)CC1 | – | – | – | – | 10 to 50 | −8 | < 500 | 1 to 10 | –
Cc1c(F)cccc1S(=O)(=O)Nc1ccc(F)c(Nc2ncnc3ccc(-n4nc(C(=O)N5CCN(CCO)CC5)c5ccccc54)nc23)c1F | > 50 | −17.7 | 500 to 1000 | 1 to 10 | – | – | – | – | –
Cc1c(F)cccc1S(=O)(=O)Nc1ccc(F)c(Nc2ncnc3ccc(-n4nc(C(=O)NCCO)c5ccccc54)nc23)c1F | 10 to 50 | 3.6 | < 500 | < 1 | – | – | – | – | –
CCN1CCN(c2cccc3c2nnn3-c2ccc3ncnc(Nc4c(F)ccc(NS(=O)(=O)c5cccc(Cl)c5Cl)c4F)c3n2)CC1 | – | – | – | – | < 10 | −3 | < 500 | < 1 | –
Cc1c(Cl)cccc1S(=O)(=O)Nc1ccc(F)c(Nc2ncnc3ccc(-n4nc(C(=O)N5CC(O)C5)c5ccccc54)nc23)c1F | 10 to 50 | −14 | < 500 | 1 to 10 | – | – | – | – | –

SMILES | IC50 [1, 4] [nM] | HCT116 pERK Ymin % [2] [%] | IC50 [2, 5] [nM] | IC50 [3, 6] [nM] | IC50 [1, 7] [nM] | HCT116 pERK % Ymin (lowest value of the IC50 curve) [2] [%] | IC50 [2] [nM] | IC50 [3, 8] [nM] | other results
O=S(=O)(Nc1ccc(F)c(Nc2ncnc3ccc(-n4cnc5c(N6C7CCC6COC7)cccc54)nc23)c1F)c1cccc(Cl)c1Cl | – | – | – | – | 10 to 50 | 0 | < 500 | 1 to 10 | –
Cc1cn(-c2ccc3ncnc(Nc4c(F)ccc(NS(=O)(=O)c5cccc(Cl)c5C)c4F)c3n2)nc1C(=O)N1CCN(CCO)CC1 | > 50 | 3 | 1000 to 10000 | 1 to 10 | – | – | – | – | –
Cc1c(F)cccc1S(=O)(=O)Nc1ccc(F)c(Nc2ncnc3ccc(-n4nc(C(=O)N5CCC6(CNC6)C5)c5ccccc54)nc23)c1F | > 50 | −2.7 | 1000 to 10000 | 1 to 10 | – | – | – | – | –
Cc1c(F)cccc1S(=O)(=O)Nc1ccc(F)c(Nc2ncnc3ccc(-n4nc(C(=O)N(C)Cc5ccccn5)c5ccccc54)nc23)c1F | < 10 | 1.1 | < 500 | < 1 | – | – | – | – | –
Cc1c(Cl)cccc1S(=O)(=O)Nc1ccc(F)c(Nc2ncnc3ccc(-n4nc(C(=O)N5CCN(C)CC5)c5ccccc54)nc23)c1F | – | – | – | – | – | – | – | – | IC50 [1, 9]: 10 to 50 nM; HCT116 pERK Ymin % ([2]; tested form: formate): −3.5%; IC50 [2, 10]: < 500 nM; IC50 [3, 11]: < 1 nM
Cc1c(F)cccc1S(=O)(=O)Nc1ccc(F)c(Nc2ncnc3ccc(-n4nc(C(=O)N5CC6CCC(C5)N6)c5ccccc54)nc23)c1F | 10 to 50 | −9.4 | < 500 | < 1 | – | – | – | – | –
CN(CCO)c1cccc2c1ncn2-c1ccc2ncnc(Nc3c(F)ccc(NS(=O)(=O)c4cccc(Cl)c4Cl)c3F)c2n1 | – | – | – | – | < 10 | −8 | < 500 | < 1 | –
Cc1c(F)cccc1S(=O)(=O)Nc1ccc(F)c(Nc2ncnc3ccc(-n4nc(C(=O)N(C)CCCO)c5ccccc54)nc23)c1F | 10 to 50 | −6.0 | < 500 | < 1 | – | – | – | – | –
CC1(O)CCCN(c2cccc3c2nnn3-c2ccc3ncnc(Nc4c(F)ccc(NS(=O)(=O)c5cccc(Cl)c5Cl)c4F)c3n2)CC1 (centres unmarked) | – | – | – | – | > 50 | 6 | < 500 | > 10 | –
Cc1c(Cl)cccc1S(=O)(=O)Nc1ccc(F)c(Nc2ncnc3ccc(-n4nc(C(=O)N5C[C@@H](C)NC[C@@H]5C)c5ccccc54)nc23)c1F | – | – | – | – | – | – | – | – | IC50 [1, 12]: 10 to 50 nM; HCT116 pERK Ymin % ([2]; tested form: formic acid salt): −7.4%; IC50 [2, 13]: 500 to 1000 nM; IC50 [3, 14]: < 1 nM
Cc1c(Cl)cccc1S(=O)(=O)Nc1ccc(F)c(Nc2ncnc3ccc(-n4nc(C(=O)N5CC[C@H](CO)C5)c5ccccc54)nc23)c1F | 10 to 50 | −0.4 | < 500 | < 1 | – | – | – | – | –
CN(C)S(=O)(=O)c1cn(-c2ccc3ncnc(Nc4c(F)ccc(NS(=O)(=O)c5ccccc5Cl)c4F)c3n2)c2ccccc12 | < 10 | −12 | < 500 | 1 to 10 | – | – | – | – | –
Cc1c(F)cccc1S(=O)(=O)Nc1ccc(F)c(Nc2ncnc3ccc(-n4nc(C(=O)N(C)Cc5ccncc5)c5ccccc54)nc23)c1F | 10 to 50 | 3.2 | < 500 | < 1 | – | – | – | – | –
O=C(c1nn(-c2ccc3ncnc(Nc4c(F)ccc(NS(=O)(=O)c5cccc(Cl)c5Cl)c4F)c3n2)c2ccccc12)N1CCN(CCO)CC1 | – | – | – | – | – | – | – | – | IC50 [1, 12]: < 10 nM; HCT116 pERK Ymin % ([2]; tested form: formic acid salt): −1.4%; IC50 [2, 13]: < 500 nM; IC50 [3, 14]: < 1 nM
O=S(=O)(Nc1ccc(F)c(Nc2ncnc3ccc(-n4cnc5c(N6CC(O)C6)cccc54)nc23)c1F)c1cccc(Cl)c1Cl | – | – | – | – | < 10 | −5 | < 500 | < 1 | –
CC1(F)CN(c2cccc3c2ncn3-c2ccc3ncnc(Nc4c(F)ccc(NS(=O)(=O)c5cccc(Cl)c5Cl)c4F)c3n2)C1 | – | – | – | – | > 50 | −15 | < 500 | > 10 | –
COc1ccc(S(=O)(=O)Nc2ccc(F)c(Nc3ncnc4ccc(-c5ccc(C)nc5)nc34)c2F)c(C)c1 | > 50 | −1 | 1000 to 10000 | > 10 | – | – | – | – | –
Cc1c(Cl)cccc1S(=O)(=O)Nc1ccc(F)c(Nc2ncnc3ccc(-n4cc(C(=O)N5CC[C@@H](N)C5)c5ccccc54)nc23)c1F | – | – | – | – | – | – | – | – | IC50 [1, 12]: 10 to 50 nM; HCT116 pERK Ymin % ([2]; tested form: formic acid salt): 3%; IC50 [2, 13]: 1000 to 10000 nM; IC50 [3, 14]: < 1 nM
O=S(=O)(Nc1ccc(F)c(Nc2ncnc3ccc(-n4cnc5c(N6CC[C@@H](O)C6)cccc54)nc23)c1F)c1cccc(Cl)c1Cl | – | – | – | – | < 10 | −19 | < 500 | 1 to 10 | –

Reference: patent publication US12139488B2, “Pyrido[3,2-d]pyrimidine compounds uses thereof for treating a proliferative disease” (Universite de Montreal, priority 2021, dated 2024)
